Columns and labels:
[1] = system: blood platelets; assay: Light transmission aggregometry (LTA), platelet aggregation in platelet-rich plasma; settings: PRP
[2] = system: blood platelets; assay: Impedance aggregometry (Multiplate), platelet aggregation in whole blood
[3] = system: blood platelets; assay: Flow cytometry of platelet activation (CD62P-positive platelets); settings: ADP 10 µM, n = 6
[4] = system: blood platelets; settings: citrate-anticoagulated blood, ADP 6.5 μM; cited from earlier work

CCCCC[C@H](O)/C=C/[C@H]1[C@H](O)CC(=O)[C@@H]1CCCCCCC(=O)O
decrease of platelet aggregation induced by ADP ([1]; PGE1 0.1 µM, 1 min preincubation, ADP 5 µM): 70%

Nc1ncnc2c1ncn2[C@@H]1O[C@H](COP(=O)(O)OP(=O)(O)O)[C@@H](O)[C@H]1O
fold lower mean platelet aggregation with 2 μM ADP than with 5 μM ADP [2]: over 1.3 fold | increase of platelet aggregation over the non-activated platelets ([2]; ADP 2 µM): four-fold increase | mean platelet aggregation (AUC) ([2]; ADP 5 µM, n = 12): 52.2 ± 6.4 U | AUC, control sample ([1]; ADP 5 µM alone): 512.9 ± 237.7 U | Amax, control sample ([1]; ADP 5 µM alone): 63.0 ± 19.2% | platelet aggregation in response to increasing ADP concentrations ([1]; ADP 0.1‒20 µM, n = 5): 2 to 91% | EC50 ([1]; read-out: EC50 of ADP-induced platelet aggregation, ADP alone, 0.1‒20 µM): 1500 nM | platelet activation (CD62P-positive platelets) ([3]; PRP): 40.7 ± 10.1% | platelet activation (CD62P-positive platelets) ([3]; blood): 29.7 ± 11.9% | platelet activation (CD62P-positive platelets) ([3]; isolated platelets): 27.0 ± 16.9% | mean platelet aggregation [4]: 68.6 U

CNC[C@H](O)c1ccc(O)c(O)c1
increase of AUC compared to control ([2]; adrenaline 10 µM + ADP 2 µM vs ADP alone): 60%

— publication PMC10060303
